Reference: US20240261333A1, “NOVEL TARGETS FOR ENHANCING ANTI-TUMOR IMMUNITY” (THE BROAD INSTITUTE, INC., priority 2021, published 2024)

By UniProt entry, the sequences of proteins in these tests, tags left out. Where a name states a change or a piece, a line headed by the entry shows the natural chain unless it says otherwise. Chains listed by the source or under a name are the forms on record and can include a tag or linker. Residues count along the entry.
UniProt P11021, 19-654 limits assumed: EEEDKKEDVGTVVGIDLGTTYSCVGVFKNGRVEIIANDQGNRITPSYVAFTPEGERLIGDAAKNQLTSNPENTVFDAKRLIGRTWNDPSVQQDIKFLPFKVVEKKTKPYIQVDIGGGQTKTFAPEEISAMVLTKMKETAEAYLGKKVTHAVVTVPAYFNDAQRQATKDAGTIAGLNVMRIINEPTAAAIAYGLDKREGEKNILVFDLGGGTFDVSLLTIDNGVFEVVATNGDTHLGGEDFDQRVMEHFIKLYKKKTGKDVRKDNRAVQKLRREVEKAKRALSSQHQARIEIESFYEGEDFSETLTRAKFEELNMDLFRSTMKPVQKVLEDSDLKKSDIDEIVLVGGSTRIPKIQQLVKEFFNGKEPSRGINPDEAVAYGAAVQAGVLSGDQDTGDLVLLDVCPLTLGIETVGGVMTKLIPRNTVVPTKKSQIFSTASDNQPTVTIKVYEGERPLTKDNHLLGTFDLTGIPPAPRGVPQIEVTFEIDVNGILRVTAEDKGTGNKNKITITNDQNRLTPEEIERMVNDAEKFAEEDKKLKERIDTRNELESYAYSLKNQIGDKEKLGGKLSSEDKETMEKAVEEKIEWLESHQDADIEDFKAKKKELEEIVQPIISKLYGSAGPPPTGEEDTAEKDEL
UniProt Q92598, other isoform, or with tags, fused parts or gaps limits assumed: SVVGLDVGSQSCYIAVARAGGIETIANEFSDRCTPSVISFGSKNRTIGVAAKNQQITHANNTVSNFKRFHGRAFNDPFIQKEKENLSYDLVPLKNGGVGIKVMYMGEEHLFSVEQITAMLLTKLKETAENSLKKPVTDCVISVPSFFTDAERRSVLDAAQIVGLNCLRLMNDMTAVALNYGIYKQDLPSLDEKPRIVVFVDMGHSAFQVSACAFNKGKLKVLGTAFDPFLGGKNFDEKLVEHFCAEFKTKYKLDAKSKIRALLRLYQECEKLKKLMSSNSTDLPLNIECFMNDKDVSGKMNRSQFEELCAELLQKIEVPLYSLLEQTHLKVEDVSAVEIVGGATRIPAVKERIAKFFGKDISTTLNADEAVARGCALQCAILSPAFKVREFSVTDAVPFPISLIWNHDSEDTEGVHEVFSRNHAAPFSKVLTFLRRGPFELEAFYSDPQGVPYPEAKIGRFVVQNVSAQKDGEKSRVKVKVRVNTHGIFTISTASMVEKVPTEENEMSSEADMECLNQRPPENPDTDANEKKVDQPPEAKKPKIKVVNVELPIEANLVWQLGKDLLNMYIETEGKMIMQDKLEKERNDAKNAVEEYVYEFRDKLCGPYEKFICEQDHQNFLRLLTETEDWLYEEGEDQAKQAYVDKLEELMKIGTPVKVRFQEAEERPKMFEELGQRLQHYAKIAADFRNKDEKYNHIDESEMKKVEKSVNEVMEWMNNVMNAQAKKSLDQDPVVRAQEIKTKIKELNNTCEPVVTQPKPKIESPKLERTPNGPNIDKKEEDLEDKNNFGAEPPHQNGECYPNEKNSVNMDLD
UniProt P23284, 34-216 limits assumed: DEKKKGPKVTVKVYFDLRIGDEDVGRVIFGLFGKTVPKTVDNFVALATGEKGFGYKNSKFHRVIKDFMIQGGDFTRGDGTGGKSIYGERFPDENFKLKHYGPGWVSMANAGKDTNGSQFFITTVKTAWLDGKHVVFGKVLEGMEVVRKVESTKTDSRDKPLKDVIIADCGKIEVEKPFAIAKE
UniProt Q9UBX3, other isoform, or with tags, fused parts or gaps limits assumed: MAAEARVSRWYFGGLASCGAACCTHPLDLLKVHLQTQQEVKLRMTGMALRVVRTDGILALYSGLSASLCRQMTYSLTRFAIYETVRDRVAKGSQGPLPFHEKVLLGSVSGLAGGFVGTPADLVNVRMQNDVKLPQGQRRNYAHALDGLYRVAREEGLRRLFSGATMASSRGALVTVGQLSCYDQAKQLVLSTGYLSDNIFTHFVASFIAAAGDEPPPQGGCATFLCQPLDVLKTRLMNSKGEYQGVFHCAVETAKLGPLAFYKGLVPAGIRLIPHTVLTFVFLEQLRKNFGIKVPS
UniProt Q00325, 50-362 limits assumed: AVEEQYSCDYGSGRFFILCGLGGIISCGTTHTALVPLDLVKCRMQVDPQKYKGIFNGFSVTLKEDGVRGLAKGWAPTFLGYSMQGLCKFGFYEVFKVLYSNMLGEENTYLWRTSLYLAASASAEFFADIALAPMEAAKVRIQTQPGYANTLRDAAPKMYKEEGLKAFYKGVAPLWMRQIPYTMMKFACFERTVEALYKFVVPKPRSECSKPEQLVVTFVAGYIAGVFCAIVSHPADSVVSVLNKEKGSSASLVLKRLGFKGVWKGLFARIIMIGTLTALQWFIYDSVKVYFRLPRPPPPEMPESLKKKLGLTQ
UniProt Q16629: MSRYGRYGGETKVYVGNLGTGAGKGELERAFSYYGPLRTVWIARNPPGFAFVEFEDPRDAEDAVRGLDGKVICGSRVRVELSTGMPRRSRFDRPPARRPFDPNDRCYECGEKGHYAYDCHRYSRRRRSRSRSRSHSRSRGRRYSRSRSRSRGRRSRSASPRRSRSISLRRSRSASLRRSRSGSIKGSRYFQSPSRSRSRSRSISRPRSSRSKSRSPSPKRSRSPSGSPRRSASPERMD

How the values were obtained:
Experiment in all cases: co-IP, IgG control, lysate of C-FLAG B3GNT2 cells, mass spectrometry
HSPA5 = HSPA5 (UniProt P11021)
HSPH1 = HSPH1 (UniProt Q92598)
PPIB = PPIB (UniProt P23284)
SLC25A10 = SLC25A10 (UniProt Q9UBX3)
SLC25A3 = SLC25A3 (UniProt Q00325)
SRSF7 = SRSF7 (UniProt Q16629)

Measured: co-IP/MS count

IgG control (Millipore Sigma 12-371) (antibody)
12: HSPA5
0: all other assays above
